Laboratory results: patent publication US20240173419A1, “CDK2 DEGRADERS AND USES THEREOF” (Kymera Therapeutics, Inc., priority 2022, published 2024)

Biological target: CDK2 (Homo sapiens, UniProt P24941)
Experiment: CDK2 degradation in MKN1 cells (AlphaLISA)
Conditions: for CDK2 degradation 14 h: Average Dmax %: 14 h incubation; for DC50: read-out: CDK2 degradation 14 h: Mean external-Abs DC50, 14 h incubation
Procedure: Degradation of CDK2 in MKN1 cells was measured using AlphaLISA technology (PerkinElmer ALSU-TCDK2-A10K). MKN1 cells were maintained in RPMI1640 medium containing 10% FBS+1× penn/strep. Cells were seeded in 96-well plates (Corning 3599) at a density of 2e4 cells per well in 80 μL of fresh complete growth medium. Cells were incubated overnight at 37° C., 5% CO2. Compounds were then added to the cell assay plates with a final top concentration of 10 μM in a 1:5 dilution series with a total of 11 doses (0.001 nM-10 μM). The final volume per well was 160 μL and the final DMSO concentration was 0.1%. Additionally, wells containing no cells and only complete growth medium were also maintained on the cell assay plates (‘no cell’ wells) and processed along with experimental wells. After 14 hour-incubation at 37° C., 5% CO2, the medium was removed and the cells were washed once with 100 μL of 1×PBS. Following removal of PBS, 40 μL of 1× Lysis Buffer containing 1× protease and phosphatase inhibitors (Roche 4693116001; Roche 4906837001) were added to each well. The cell assay plate was agitated on a plate shaker at 350 rpm for 10 minutes at room temperature. 10 μL of each cell lysate were transferred to a 384-well plate (PerkinElmer 6007290). 10 μL of control lysates (from PerkinElmer ALSU-TCDK2-A10K kit) were added to separate wells to generate a standard curve. Activation Buffer was prepared by diluting 25-fold in combined Reaction Buffer 1 and Reaction Buffer 2. Acceptor Beads were diluted 50-fold in combined Reaction Buffers. 5 μL of Acceptor Mix were added to each well. The plate was sealed with Topseal-Aadhesive film, covered with foil, and incubated in the dark for 1 hour at room temperature. Under subdued light, the Donor Beads were diluted 50-fold in Dilution Buffer. 5 μL of Donor Mix were added to each well under subdued light. The plate was sealed with Topseal-A adhesive film, covered with foil, and incubated in the dark for 1 hour at room temperature. Under subdued light, the plates were analyzed on an EnVision Microplate Reader (PerkinElmer Model 2009-0030). The average signal from ‘no cell’ wells was subtracted from the signal in experimental wells prior to calculating Alpha signal for test compounds and negative control (0.100 DMSO). The data were analyzed using Xlfit (v5.3. 1.3) and the dose-dependent CDK2 degradation data were fit using a four-parameter logistic model to calculate DC50.

SMILES: Cc1cc(S(=O)(=O)NC23CCC(CN4CCN(c5ccc(C6CCC(=O)NC6=O)c(F)c5)CC4)(CC2)C3)ccc1Nc1ncc(C(F)(F)F)c(N2CCC[C@](C)(O)C2)n1 (some centres unmarked)
CDK2 degradation 14 h: Average Dmax %: A (A (>75% o))
DC50: < 100 nM

SMILES: COc1cc(S(=O)(=O)N[C@H]2CC[C@H](CN3CCN(c4ccc(C5CCC(=O)NC5=O)c(F)c4)CC3)CC2)ccc1Nc1ncc(C(F)(F)F)c(N2CCC[C@](C)(O)C2)n1 (some centres unmarked)
CDK2 degradation 14 h: Average Dmax %: A (A (>75% o))
DC50: < 100 nM

SMILES: Cc1cc(S(=O)(=O)N[C@H]2C[C@H](CN3CC(c4ccc(C5CCC(=O)NC5=O)c(Cl)c4)C3)C2)ccc1Nc1ncc(C(F)(F)F)c(N2CCC[C@](C)(O)C2)n1 (some centres unmarked)
CDK2 degradation 14 h: Average Dmax %: B (B (>50% -75%))
DC50: > 1000 nM

SMILES: Cc1cc(S(=O)(=O)NCCO[C@H]2CC[C@H](CN3CCC(c4ccc5c(c4)n(C)c(=O)n5C4CCC(=O)NC4=O)CC3)CC2)ccc1Nc1ncc(C(F)(F)F)c([C@H]2CC[C@@](C)(O)CC2)n1 (some centres unmarked)
CDK2 degradation 14 h: Average Dmax %: A (A (>75% o))
DC50: < 100 nM

SMILES: Cc1cc(S(=O)(=O)NC23CCCC(CN4CCN(c5ccc(C6CCC(=O)NC6=O)cc5F)CC4)(C2)C3)ccc1Nc1ncc(C(F)(F)F)c(N2CCC[C@](C)(O)C2)n1 (some centres unmarked)
CDK2 degradation 14 h: Average Dmax %: A (A (>75% o))
DC50: < 100 nM

SMILES: Cc1cc(S(=O)(=O)NCCOCCNC(=O)COc2ccc(C3CCC(=O)NC3=O)cc2)ccc1Nc1ncc2cc(Cl)c(=O)n(C3CCCC3)c2n1 (centres unmarked)
CDK2 degradation 14 h: Average Dmax %: A (A (>75% o))
DC50: 100 to 500 nM

SMILES: [2H][C@@](C)(CO[C@H]1CC[C@H](CN2CCN(c3ccc4c(c3F)n(C)c(=O)n4C3CCC(=O)NC3=O)CC2)CC1)NS(=O)(=O)c1ccc(Nc2ncc(C(F)(F)F)c(N3CCC[C@](C)(O)C3)n2)c(C)c1 (some centres unmarked)
CDK2 degradation 14 h: Average Dmax %: A (A (>75% o))
DC50: < 100 nM

SMILES: Cc1cc(S(=O)(=O)N[C@H]2CCN(CC3CCN(c4ccc(C5CCC(=O)NC5=O)c(F)c4)CC3)C[C@H]2F)ccc1Nc1ncc(C(F)(F)F)c(N2CCC[C@](C)(O)C2)n1 (some centres unmarked)
CDK2 degradation 14 h: Average Dmax %: A (A (>75% o))
DC50: < 100 nM

SMILES: Cc1cc(S(=O)(=O)NC23CCC(CN4CCN(c5ccc(C6CCC(=O)NC6=O)cc5F)CC4)(CC2)C3)ccc1Nc1ncc(C(F)(F)F)c(N2CCC[C@](C)(O)C2)n1 (some centres unmarked)
CDK2 degradation 14 h: Average Dmax %: A (A (>75% o))
DC50: < 100 nM

SMILES: Cc1cc(S(=O)(=O)NCCOCCOCCNC(=O)c2ccc(Cl)c(N3CCC(=O)NC3=O)c2)ccc1Nc1ncc2cc(Cl)c(=O)n(C3CCCC3)c2n1
CDK2 degradation 14 h: Average Dmax %: C (C (>25% -50%))
DC50: > 1000 nM

SMILES: Cc1cc(S(=O)(=O)N2CCC3(CCN(c4cccc5c4n(C)c(=O)n5C4CCC(=O)NC4=O)CC3)CC2)ccc1Nc1ncc2ccc(=O)n(C3CCCC3)c2n1 (centres unmarked)
CDK2 degradation 14 h: Average Dmax %: D (D (<25%))
DC50: > 1000 nM

SMILES: CC1(O)CCN(c2nc(Nc3ccc(S(=O)(=O)N[C@H]4CC[C@H](CN5CCN(c6ccc(C7CCC(=O)NC7=O)c(F)c6)CC5)CC4)cc3F)ncc2C(F)(F)F)CC1 (some centres unmarked)
CDK2 degradation 14 h: Average Dmax %: A (A (>75% o))
DC50: < 100 nM

SMILES: Cc1cc(S(=O)(=O)N[C@H]2CC[C@H](CN(C)c3ccc(C4CCC(=O)NC4=O)c(Cl)c3)CC2)ccc1Nc1ncc(C(F)(F)F)c(N2CCC[C@](C)(O)C2)n1 (some centres unmarked)
CDK2 degradation 14 h: Average Dmax %: D (D (<25%))
DC50: > 1000 nM

The next lines start with the values.

CDK2 degradation 14 h: Average Dmax %: A (A (>75% o))
DC50: < 100 nM
SMILES: Cc1cc(S(=O)(=O)NC2CCC(O)(CC3CCN(c4ccc(C5CCC(=O)NC5=O)c(F)c4)CC3)CC2)ccc1Nc1ncc(C(F)(F)F)c(N2CCC[C@](C)(O)C2)n1 (some centres unmarked)

CDK2 degradation 14 h: Average Dmax %: A (A (>75% o))
DC50: < 100 nM
SMILES: Cc1cc(S(=O)(=O)N[C@H](C)CO[C@H]2C[C@H](CN3CCN(c4cccc5c4n(C)c(=O)n5C4CCC(=O)NC4=O)CC3)C2)ccc1Nc1ncc(C(F)(F)F)c(N2CCC[C@](C)(O)C2)n1 (some centres unmarked)

CDK2 degradation 14 h: Average Dmax %: D (D (<25%))
DC50: > 1000 nM
SMILES: Cc1cc(S(=O)(=O)C2CC3(CCN(Cc4cccc5c4n(C)c(=O)n5C4CCC(=O)NC4=O)CC3)C2)ccc1Nc1ncc(C(F)(F)F)c(N2CCC[C@](C)(O)C2)n1 (some centres unmarked)

CDK2 degradation 14 h: Average Dmax %: B (B (>50% -75%))
DC50: 100 to 500 nM
SMILES: Cc1cc(S(=O)(=O)N[C@H]2CC[C@@H](OC3CCN(c4ccc(C5CCC(=O)NC5=O)cc4F)CC3)CC2)ccc1Nc1ncc(C(F)(F)F)c(N2CCC[C@](C)(O)C2)n1 (some centres unmarked)

CDK2 degradation 14 h: Average Dmax %: A (A (>75% o))
DC50: < 100 nM
SMILES: Cc1cc(S(=O)(=O)N[C@H]2CC[C@H](CN3CCC(c4cccc(NC5CCC(=O)NC5=O)c4)CC3)CC2)ccc1Nc1ncc(C(F)(F)F)c(N2CCC[C@](C)(O)C2)n1 (some centres unmarked)

CDK2 degradation 14 h: Average Dmax %: A (A (>75% o))
DC50: < 100 nM
SMILES: Cc1cc(S(=O)(=O)C2CC3(CCN(CC4CCN(c5cccc6c5oc(=O)n6C5CCC(=O)NC5=O)CC4)CC3)C2)ccc1Nc1ncc2cc(Cl)c(=O)n(C3CCCC3)c2n1 (centres unmarked)

CDK2 degradation 14 h: Average Dmax %: A (A (>75% o))
DC50: 100 to 500 nM
SMILES: Cc1cc(S(=O)(=O)N[C@H]2CC[C@H](CN3CCN(c4cccc(N[C@H]5CCC(=O)NC5=O)c4F)CC3)CC2)ccc1Nc1ncc(C(F)(F)F)c(N2CCC[C@](C)(O)C2)n1

CDK2 degradation 14 h: Average Dmax %: A (A (>75% o))
DC50: < 100 nM
SMILES: Cc1cc(S(=O)(=O)C2CC3(CCN(CC4CCN(c5ccc6c(c5F)n(C)c(=O)n6C5CCC(=O)NC5=O)CC4)CC3)C2)ccc1Nc1ncc2c(n1)N(C1CCCC1)C(=O)CC2 (centres unmarked)

CDK2 degradation 14 h: Average Dmax %: D (D (<25%))
DC50: > 1000 nM
SMILES: Cn1c(=O)n(C2CCC(=O)NC2=O)c2ccc(CCCOCCOCC(=O)N3CCC(Nc4ncc5cc(C(F)F)c(=O)n([C@@H]6CCC[C@@]6(C)O)c5n4)CC3)cc21 (some centres unmarked)

CDK2 degradation 14 h: Average Dmax %: A (A (>75% o))
DC50: < 100 nM
SMILES: Cc1cc(S(=O)(=O)N[C@H]2C[C@H](N3CCN(CC4CCN(c5c(F)ccc6c5n(C)c(=O)n6C5CCC(=O)NC5=O)CC4)CC3)C2)ccc1Nc1ncc(C(F)(F)F)c(N2CCC[C@](C)(O)C2)n1 (some centres unmarked)

CDK2 degradation 14 h: Average Dmax %: A (A (>75% o))
DC50: < 100 nM
SMILES: COc1cc(C2CCC(=O)NC2=O)ccc1N1CCN(C[C@H]2CC[C@H](NS(=O)(=O)c3ccc(Nc4ncc(C(F)(F)F)c(N5CCC[C@](C)(O)C5)n4)c(C)c3)CC2)CC1 (some centres unmarked)

CDK2 degradation 14 h: Average Dmax %: A (A (>75% o))
DC50: < 100 nM
SMILES: Cc1cc(S(=O)(=O)N[C@H]2C[C@H](N3CCN(CCC#Cc4ccc(Cl)c(C5CCC(=O)NC5=O)c4)CC3)C2)ccc1Nc1ncc(C(F)(F)F)c(N2CCC[C@](C)(O)C2)n1 (some centres unmarked)

CDK2 degradation 14 h: Average Dmax %: C (C (>25% -50%))
DC50: > 1000 nM
SMILES: Cc1cc(S(=O)(=O)NCCOCCNC(=O)COc2ccc(C)c(N3CCC(=O)NC3=O)c2)ccc1Nc1ncc2cc(Cl)c(=O)n(C3CCCC3)c2n1

CDK2 degradation 14 h: Average Dmax %: A (A (>75% o))
DC50: < 100 nM
SMILES: Cc1cc(S(=O)(=O)NC23C4C5C2C2C3C4C52N2CCN(c3ccc(C4CCC(=O)NC4=O)cc3F)CC2)ccc1Nc1ncc(C(F)(F)F)c(N2CCC[C@](C)(O)C2)n1 (some centres unmarked)

CDK2 degradation 14 h: Average Dmax %: A (A (>75% o))
DC50: < 100 nM
SMILES: C[C@]1(O)CCCN(c2nc(Nc3ccc(S(=O)(=O)N[C@@H]4CCN(CC5CCN(c6ccc(C7CCC(=O)NC7=O)cc6F)CC5)C[C@@H]4F)cc3F)ncc2C(F)(F)F)C1 (some centres unmarked)

CDK2 degradation 14 h: Average Dmax %: B (B (>50% -75%))
DC50: < 100 nM
SMILES: Cc1cc(S(=O)(=O)NC2CCN(CC3(F)CN(c4ccc(C5CCC(=O)NC5=O)c(Cl)c4)C3)CC2)ccc1Nc1ncc(C(F)(F)F)c(N2CCC[C@](C)(O)C2)n1 (some centres unmarked)

CDK2 degradation 14 h: Average Dmax %: A (A (>75% o))
DC50: < 100 nM
SMILES: Cc1cc(S(=O)(=O)N[C@H](C)CO[C@H]2CC[C@H](CN3CC(c4cccc5c4n(C)c(=O)n5C4CCC(=O)NC4=O)C3)CC2)ccc1Nc1ncc(C(F)(F)F)c(N2CC[C@H](C(C)(C)O)C2)n1 (some centres unmarked)

CDK2 degradation 14 h: Average Dmax %: A (A (>75% o))
DC50: < 100 nM
SMILES: Cc1cc(S(=O)(=O)N[C@H](C)CO[C@H]2CC[C@H](CN3CCN(c4ccc5c(c4F)n(C)c(=O)n5C4CCC(=O)NC4=O)CC3)CC2)ccc1Nc1ncc(C(F)(F)F)c(N2CCCC(C)(O)C2)n1 (some centres unmarked)

Each block holds one compound with its values, some of them ahead of it.
